According to US20210293786A1, “Method Relating to Evaluation of Tumor Tissue of Experimental Animal” (KONICA MINOLTA, INC., priority 2016, published 2021):

What was measured:
[1] = test system: breast cancer tissues collected from a patient with breast cancer (HER2 score +3), transplanted in PDX mice; test: Efficacy of Trastuzumab in second-generation (P2) PDX mice, groups stratified by CD140a PID score of the P1 mice (Example 1-1); assay type: in vivo, mouse; conditions: 15 mg/kg i.v.; for Drug efficacy: Day 21; for Tumor volume: group average on Day 21 relative to that when administered (100)
[2] = test system: breast cancer tissues collected from a patient with breast cancer (HER2 score +3), transplanted in PDX mice; test: Efficacy of Trastuzumab in second-generation (P2) PDX mice, groups stratified by CD140a DAB score and further by HER2 score of the P1 mice (Examples 1-2, 2-1, 2-2); assay type: in vivo, mouse; conditions: for Drug efficacy: Day 21; for Tumor volume: Day 21 relative to that when administered (100)
[3] = group P2-3 (from P1-3, CD140a PID particles 100000-150000)
[4] = group P2-4 (from P1-4, CD140a PID particles >150000)
[5] = group P2-5-4 (P1-5, CD140a 0-10%, HER2 PID particles per cell <500)
[6] = group P2-6-2 (P1-6, CD140a 10-20%, HER2 DAB ≤2+)
[7] = group P2-6-4 (P1-6, CD140a 10-20%, HER2 PID particles per cell <500)
[8] = group P2-7 (from P1-7, CD140a DAB score 20-30%)
[9] = group P2-7-1 (P1-7, CD140a 20-30%, HER2 DAB 3+)
[10] = group P2-7-2 (P1-7, CD140a 20-30%, HER2 DAB ≤2+)
[11] = group P2-7-4 (P1-7, CD140a 20-30%, HER2 PID particles per cell <500)
[12] = group P2-8 (from P1-8, CD140a DAB score >30%)
[13] = group P2-8-2 (P1-8, CD140a >30%, HER2 DAB ≤2+)
[14] = group P2-8-3 (P1-8, CD140a >30%, HER2 PID particles per cell ≥500)
[15] = group P2-8-4 (P1-8, CD140a >30%, HER2 PID particles per cell <500)

In the case of Trastuzumab, the Drug efficacy ([1]; group P2-1 (from P1-1, CD140a PID particles 0-50000)) is reported as “AA (AA, a tumor volume of <200)”, the Drug efficacy ([1]; group P2-2 (from P1-2, CD140a PID particles 50000-100000)) is reported as “AA (AA, a tumor volume of <200)” and the Drug efficacy [1, 3] is reported as “BB (BB, a tumor volume of 200 to 400)”. The Tumor volume [1, 3] was 252, the Drug efficacy [1, 4] was “CC (CC, a tumor volume of 400 to 600)” and the Tumor volume [1, 4] was 408. For the same substance, the Drug efficacy ([2]; group P2-5 (from P1-5, CD140a DAB score 0-10%)) was “AA (AA, a tumor volume of <200)”, the Drug efficacy ([2]; group P2-5-1 (P1-5, CD140a 0-10%, HER2 DAB 3+)) was “AA (AA, a tumor volume of <200)” and the Drug efficacy ([2]; group P2-5-3 (P1-5, CD140a 0-10%, HER2 PID particles per cell ≥500)) was “AA (AA, a tumor volume of <200)”. For the same substance, the Drug efficacy [2, 5] was “AA (AA, a tumor volume of <200)”, the Tumor volume [2, 5] was 192 and the Drug efficacy ([2]; group P2-6 (from P1-6, CD140a DAB score 10-20%)) was “AA (AA, a tumor volume of <200)”. The Drug efficacy ([2]; group P2-6-1 (P1-6, CD140a 10-20%, HER2 DAB 3+)) was “AA (AA, a tumor volume of <200)”, the Drug efficacy [2, 6] was “BB (BB, a tumor volume of 200 to 400)” and the Tumor volume [2, 6] was 340. The Drug efficacy ([2]; group P2-6-3 (P1-6, CD140a 10-20%, HER2 PID particles per cell ≥500)) was “AA (AA, a tumor volume of <200)”, the Drug efficacy [2, 7] was “BB (BB, a tumor volume of 200 to 400)” and the Tumor volume [2, 7] was 280. For the same substance, the Drug efficacy [2, 8] was “BB (BB, a tumor volume of 200 to 400)”, the Tumor volume [2, 8] was 252 and the Drug efficacy [2, 9] was “BB (BB, a tumor volume of 200 to 400)”. The Tumor volume [2, 9] was 212, the Drug efficacy [2, 10] was “BB (BB, a tumor volume of 200 to 400)” and the Tumor volume [2, 10] was 392. The Drug efficacy ([2]; group P2-7-3 (P1-7, CD140a 20-30%, HER2 PID particles per cell ≥500)) was “AA (AA, a tumor volume of <200)”, the Drug efficacy [2, 11] was “CC (CC, a tumor volume of 400 to 600)” and the Tumor volume [2, 11] was 516. For the same substance, the Drug efficacy [2, 12] was “CC (CC, a tumor volume of 400 to 600)”, the Tumor volume [2, 12] was 408 and the Drug efficacy [2, 13] was “DD (DD, a tumor volume of >600)”. For the same substance, the Tumor volume [2, 13] was 658, the Drug efficacy [2, 14] was “BB (BB, a tumor volume of 200 to 400)” and the Tumor volume [2, 14] was 207. For the same substance, the Drug efficacy [2, 15] was “DD (DD, a tumor volume of >600)” and the Tumor volume [2, 15] was 609.
